The values that follow come from patent US20060106092A1.

Sequences of proteins named here, by UniProt entry; tags and fusion partners are left off. A change or cut given only in a name is not applied to a line headed by its entry.
UniProt P11511, whole entry: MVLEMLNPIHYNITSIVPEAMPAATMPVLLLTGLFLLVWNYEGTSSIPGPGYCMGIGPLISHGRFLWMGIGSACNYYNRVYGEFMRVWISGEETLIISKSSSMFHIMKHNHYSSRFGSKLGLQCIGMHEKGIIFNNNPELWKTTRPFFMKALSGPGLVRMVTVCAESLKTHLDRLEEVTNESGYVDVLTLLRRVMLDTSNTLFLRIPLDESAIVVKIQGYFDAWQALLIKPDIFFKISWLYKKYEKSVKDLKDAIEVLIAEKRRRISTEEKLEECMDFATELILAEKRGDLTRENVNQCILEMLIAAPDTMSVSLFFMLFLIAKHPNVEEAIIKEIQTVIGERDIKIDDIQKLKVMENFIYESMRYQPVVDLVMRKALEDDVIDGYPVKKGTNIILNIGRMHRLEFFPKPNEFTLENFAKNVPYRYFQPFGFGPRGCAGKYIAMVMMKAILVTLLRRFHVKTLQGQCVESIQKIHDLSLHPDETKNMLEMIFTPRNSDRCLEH
UniProt P11511, whole entry D309A: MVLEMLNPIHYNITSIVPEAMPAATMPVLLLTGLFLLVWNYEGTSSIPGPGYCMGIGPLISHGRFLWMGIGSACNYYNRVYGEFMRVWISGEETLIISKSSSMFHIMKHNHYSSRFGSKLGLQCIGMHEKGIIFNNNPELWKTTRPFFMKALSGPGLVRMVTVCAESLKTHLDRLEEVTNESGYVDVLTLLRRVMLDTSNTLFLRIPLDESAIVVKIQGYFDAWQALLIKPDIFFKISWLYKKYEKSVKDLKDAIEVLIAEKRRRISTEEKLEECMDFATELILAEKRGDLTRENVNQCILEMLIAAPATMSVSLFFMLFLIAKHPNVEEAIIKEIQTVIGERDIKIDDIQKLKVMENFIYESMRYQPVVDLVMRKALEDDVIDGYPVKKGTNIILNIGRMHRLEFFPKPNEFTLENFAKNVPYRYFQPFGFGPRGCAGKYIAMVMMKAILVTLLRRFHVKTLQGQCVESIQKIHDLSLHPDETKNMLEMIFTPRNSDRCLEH
UniProt P11511, whole entry E302D: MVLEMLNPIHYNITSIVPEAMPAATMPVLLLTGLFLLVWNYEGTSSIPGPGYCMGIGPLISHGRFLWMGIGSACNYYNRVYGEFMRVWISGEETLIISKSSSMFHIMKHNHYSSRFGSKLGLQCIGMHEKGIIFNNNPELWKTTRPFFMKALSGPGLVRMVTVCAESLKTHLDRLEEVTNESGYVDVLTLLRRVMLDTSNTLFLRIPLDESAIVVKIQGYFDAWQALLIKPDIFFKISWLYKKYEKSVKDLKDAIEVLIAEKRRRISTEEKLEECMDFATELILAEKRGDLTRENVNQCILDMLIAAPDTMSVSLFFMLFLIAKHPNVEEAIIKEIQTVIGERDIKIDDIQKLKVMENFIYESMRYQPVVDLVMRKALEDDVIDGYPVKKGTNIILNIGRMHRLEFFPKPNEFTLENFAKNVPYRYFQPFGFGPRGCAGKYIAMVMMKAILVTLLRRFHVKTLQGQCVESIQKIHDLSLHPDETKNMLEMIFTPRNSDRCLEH
UniProt P11511, whole entry H480Q: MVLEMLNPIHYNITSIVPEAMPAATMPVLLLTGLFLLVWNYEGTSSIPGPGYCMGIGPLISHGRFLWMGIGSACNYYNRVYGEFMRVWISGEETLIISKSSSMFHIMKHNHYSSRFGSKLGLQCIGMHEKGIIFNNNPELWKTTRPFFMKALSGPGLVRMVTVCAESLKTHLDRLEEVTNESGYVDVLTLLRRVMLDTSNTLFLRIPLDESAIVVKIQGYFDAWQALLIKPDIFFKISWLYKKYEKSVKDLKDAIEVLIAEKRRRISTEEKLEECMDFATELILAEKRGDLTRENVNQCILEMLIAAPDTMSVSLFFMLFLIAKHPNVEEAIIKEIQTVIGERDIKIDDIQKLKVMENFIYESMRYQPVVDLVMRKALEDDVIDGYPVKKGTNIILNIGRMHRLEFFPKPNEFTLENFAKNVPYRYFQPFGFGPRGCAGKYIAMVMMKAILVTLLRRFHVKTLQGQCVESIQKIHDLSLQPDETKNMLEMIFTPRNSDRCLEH
UniProt P11511, whole entry I133Y: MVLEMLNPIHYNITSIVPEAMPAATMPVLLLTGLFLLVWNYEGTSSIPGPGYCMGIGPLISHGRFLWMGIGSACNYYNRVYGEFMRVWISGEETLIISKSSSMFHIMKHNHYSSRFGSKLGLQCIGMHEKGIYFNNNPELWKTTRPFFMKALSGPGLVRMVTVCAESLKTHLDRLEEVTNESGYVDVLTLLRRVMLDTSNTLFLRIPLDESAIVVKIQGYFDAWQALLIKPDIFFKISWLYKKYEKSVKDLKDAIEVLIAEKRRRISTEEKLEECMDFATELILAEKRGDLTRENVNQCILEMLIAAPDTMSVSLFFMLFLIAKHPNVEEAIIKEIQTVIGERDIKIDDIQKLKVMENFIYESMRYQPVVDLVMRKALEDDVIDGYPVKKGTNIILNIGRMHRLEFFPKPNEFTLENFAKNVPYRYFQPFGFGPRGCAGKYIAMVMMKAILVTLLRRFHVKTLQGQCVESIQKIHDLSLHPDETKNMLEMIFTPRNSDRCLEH
UniProt P11511, whole entry S478T: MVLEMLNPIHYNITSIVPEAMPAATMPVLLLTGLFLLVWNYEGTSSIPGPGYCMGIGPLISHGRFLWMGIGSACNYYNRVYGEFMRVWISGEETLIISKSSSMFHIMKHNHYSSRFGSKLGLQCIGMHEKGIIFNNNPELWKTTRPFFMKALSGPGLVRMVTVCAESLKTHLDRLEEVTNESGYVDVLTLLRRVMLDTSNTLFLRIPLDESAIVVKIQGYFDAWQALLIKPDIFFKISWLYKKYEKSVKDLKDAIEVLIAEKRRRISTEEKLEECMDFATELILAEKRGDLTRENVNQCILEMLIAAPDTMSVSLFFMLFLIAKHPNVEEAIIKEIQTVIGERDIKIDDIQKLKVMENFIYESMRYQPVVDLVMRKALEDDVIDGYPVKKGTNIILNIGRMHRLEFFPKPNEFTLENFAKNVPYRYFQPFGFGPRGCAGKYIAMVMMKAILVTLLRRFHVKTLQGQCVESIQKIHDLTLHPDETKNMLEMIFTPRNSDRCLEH
UniProt P11511, whole entry T310S: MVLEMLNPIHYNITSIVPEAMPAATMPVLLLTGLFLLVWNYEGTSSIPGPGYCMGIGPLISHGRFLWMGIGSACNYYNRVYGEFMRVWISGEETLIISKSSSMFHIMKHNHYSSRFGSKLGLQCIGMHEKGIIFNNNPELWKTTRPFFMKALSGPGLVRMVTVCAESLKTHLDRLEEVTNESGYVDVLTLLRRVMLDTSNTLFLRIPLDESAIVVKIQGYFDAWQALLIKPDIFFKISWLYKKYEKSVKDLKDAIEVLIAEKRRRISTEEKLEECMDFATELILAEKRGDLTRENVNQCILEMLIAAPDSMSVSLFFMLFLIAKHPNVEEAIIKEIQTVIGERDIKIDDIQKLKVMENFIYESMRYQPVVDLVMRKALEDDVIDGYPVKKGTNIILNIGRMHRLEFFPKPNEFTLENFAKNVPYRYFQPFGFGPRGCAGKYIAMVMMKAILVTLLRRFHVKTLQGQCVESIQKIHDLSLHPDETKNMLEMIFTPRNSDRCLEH

For orientation: IC50 means the midpoint of a concentration-inhibition curve. By Ki is commonly meant a dissociation constant, usually derived from enzyme kinetics or from competition with a known ligand.

Assay [1] deals with human placental aromatase (Homo sapiens, UniProt P11511). Kind of assay: human placenta microsome aromatase assay (tritiated water release). Here is the method:
In vitro aromatase Assay. Aromatase activity was determined using the tritiated water release method.^8 The assay was performed using placental microsomes or microsomal fractions prepared from aromatase-expressing Chinese hamster ovary (CHO) cells. The assay reaction mixture (500 μl) contained the substrate [1β-^3H(N)] androst-4-ene-3,17-dione (specific activity 24.7 Ci/mmol) (100 nM), microsomal preparations (20 μg), progesterone (10 μM), bovine serum albumin (0.1%) and potassium phosphate (67 mM, pH 7.4). Progesterone was required to suppress endogenous 5α-reductase in the cell homogenates that also consume the androgen substrate. After incubation for 10 minutes at room temperature, 50 μl of NADPH (12 mM) was added to the mixture and incubated in a 37° C. water bath for 10 minutes. At the end of 10 minutes, the reaction was stopped by the addition of 500 μl of 5% TCA. After a 10 minute centrifugation at 1000×g, supernatants were removed to new glass tubes and mixed with an equal volume of chloroform to remove unreacted substrate.
For the second extraction, the upper aqueous phase was transferred to microfuge tubes containing a dextran-charcoal pellet. Charcoal mixtures were vortexed and subsequently pelleted by centrifugation at 15,000×g for 5 minutes. For each sample, a 300 μl aliquot of the supernatant containing the tritiated water product, was mixed with 3 ml Scintisafe 30% liquid scintillation cocktail and counted in a Tri-Carb Liquid Scintillation Analyzer 1600CA (Packard, Downers Grove, Ill.).
To determine the aromatase suppression activity of wine chemicals, the assay was performed in the presence of wine fractions at the indicated amounts. Inhibition kinetic analysis on wine chemicals was performed with varying concentrations of the substrate androstenedione at 20, 40, 60, 100 and 200 nM.

Assay [2] deals with human aromatase mutant D309A (Homo sapiens, UniProt P11511, D309A). The experiment in a line: in vitro microsome aromatase assay on homogenates of mutant D309A aromatase transfected CHO cells. The settings on record: FIG. 5. Here is the method:
(§1) In the presence of various concentrations of HPLC peak 1 procyanidin B dimer, an in vitro microsome assay was performed on the cell homogenates prepared from the wild-type and mutant human aromatase transfected CHO cells. The activities of the untreated samples were taken as 100%. Chinese hamster ovary (CHO) cells transfected with human wild-type and mutant aromatase were grown in Ham's medium, 1 mM sodium pyruvate, 2 mM L-glutamine, 1X-penicillin/streptomycin, 15 mM HEPES, and 10% FBS optimized for CHO cells (Hyclone).
(§2) Aromatase Site-Directed Mutagenesis Studies. The specificity of the interaction of peak 1 procyanidin B dimer with aromatase was further evaluated using aromatase active site mutants. […]
(§3) In vitro aromatase Assay. Aromatase activity was determined using the tritiated water release method.^8 The assay was performed using placental microsomes or microsomal fractions prepared from aromatase-expressing Chinese hamster ovary (CHO) cells. […]
(§4) For the second extraction, the upper aqueous phase was transferred to microfuge tubes containing a dextran-charcoal pellet. […] For each sample, a 300 μl aliquot of the supernatant containing the tritiated water product, was mixed with 3 ml Scintisafe 30% liquid scintillation cocktail and counted in a Tri-Carb Liquid Scintillation Analyzer 1600CA (Packard, Downers Grove, Ill.).

The target of assay [3] is human aromatase mutant I133Y (Homo sapiens, UniProt P11511, I133Y). Kind of assay: in vitro microsome aromatase assay on homogenates of mutant I133Y aromatase transfected CHO cells. The settings on record: FIG. 5. Here is the method:
as §1, §2, §3, §4

The target in assay [4] is human aromatase mutant E302D (Homo sapiens, UniProt P11511, E302D). Kind of assay: in vitro microsome aromatase assay on homogenates of mutant E302D aromatase transfected CHO cells. The settings on record: FIG. 5. On the procedure:
as §1, §2, §3, §4

In assay [5] the target is human aromatase mutant S478T (Homo sapiens, UniProt P11511, S478T). Kind of assay: in vitro microsome aromatase assay on homogenates of mutant S478T aromatase transfected CHO cells. The settings on record: FIG. 5. Here is the method:
as §1, §2, §3, §4

The target in assay [6] is human aromatase mutant T310S (Homo sapiens, UniProt P11511, T310S). Kind of assay: in vitro microsome aromatase assay on homogenates of mutant T310S aromatase transfected CHO cells. The note with it: FIG. 5. Here is the method:
as §1, §2, §3, §4

Assay [7] has as its target human aromatase mutant H480Q (Homo sapiens, UniProt P11511, H480Q). The experiment in a line: in vitro microsome aromatase assay on homogenates of mutant H480Q aromatase transfected CHO cells. The settings on record: FIG. 5. On the procedure: as §1, §2, §3, §4

As to `Oc1cc(O)c2c(c1)OC(c1ccc(O)c(O)c1)C(O)C2c1c(O)cc2c(c1O)CC(O)C(c1ccc(O)c(O)c1)O2` (single isomer, unassigned), the “manner of aromatase inhibition with respect to the substrate” value in assay [1] (enzyme kinetic analysis, FIG. 4) is given as “competitive”. The IC50 in assay [1] (read-out: IC50 of aromatase inhibition, human placental microsomes, 100 nM androstenedione substrate, calculated using a molecular weight of 579) is 15 to 20 µM. Further, the Ki in assay [1] (read-out: Ki value, secondary plot (1/v versus [I]), androstenedione 20-200 nM) is 6 µM. The “effect of mutation on inhibition compared to wild-type aromatase” value is given as “completely eliminating the ability of HPLC peak 1 dimer to inhibit aromatase” in assay [2], “significant in reversing the inhibitory action” in assay [5], “more effective dose response” in assay [6] and “significant in reversing the inhibitory action” in assay [7]. The “effect of mutation on inhibition profile compared to wild-type aromatase” value in assay [3] and in assay [4] was “did not alter the inhibition profile” each time.
